Experimental data taken from patent US7759499B2, “Compounds as inhibitors of hepatitis C virus NS3 serine protease” (Schering Corporation, priority 2004, dated 2010).

Protein sequences, listed by entry. Tags and fused reporters are not part of them. Residues count along the entry.
UniProt P27958, 1027-1657: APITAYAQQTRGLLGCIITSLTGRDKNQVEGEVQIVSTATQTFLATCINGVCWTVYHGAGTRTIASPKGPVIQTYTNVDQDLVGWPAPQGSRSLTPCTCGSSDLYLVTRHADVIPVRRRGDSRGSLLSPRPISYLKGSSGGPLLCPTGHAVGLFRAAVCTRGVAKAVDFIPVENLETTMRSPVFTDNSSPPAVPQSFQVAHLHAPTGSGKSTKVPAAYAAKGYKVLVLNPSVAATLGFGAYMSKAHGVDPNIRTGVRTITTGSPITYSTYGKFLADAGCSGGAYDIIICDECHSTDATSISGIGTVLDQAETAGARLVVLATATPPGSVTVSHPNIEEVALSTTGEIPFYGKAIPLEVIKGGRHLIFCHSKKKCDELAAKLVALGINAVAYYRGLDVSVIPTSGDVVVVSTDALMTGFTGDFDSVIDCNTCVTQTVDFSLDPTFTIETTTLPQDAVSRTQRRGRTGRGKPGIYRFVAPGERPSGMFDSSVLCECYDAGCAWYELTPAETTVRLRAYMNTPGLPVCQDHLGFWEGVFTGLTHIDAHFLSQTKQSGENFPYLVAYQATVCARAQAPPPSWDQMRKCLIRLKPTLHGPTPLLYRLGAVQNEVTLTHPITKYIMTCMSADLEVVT
UniProt P27958, 1658-1711: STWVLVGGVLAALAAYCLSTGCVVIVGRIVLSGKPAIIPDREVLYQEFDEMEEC

Target: Recombinant heterodimeric HCV NS3/NS4A protease (strain 1a) (Hepatitis C virus genotype 1a, UniProt P27958)
Test: Spectrophotometric assay for HCV protease inhibitory activity
Assay type: biochemical
Details: Table 1, range

Row | SMILES | Ki [nM]
1 | CN(C[C@@H](NC(=O)N[C@H](C(=O)N1C[C@H]2[C@@H]([C@H]1C(=O)NC(CC1CC1)C(=O)C(N)=O)C2(C)C)C(C)(C)C)C(C)(C)C)S(=O)(=O)NCCCCl (some centres unmarked) [Compound 10022] | ≤ 75
2 | C=CCNC(=O)C(=O)C(CCCC)NC(=O)[C@@H]1[C@@H]2[C@H](CN1C(=O)[C@@H](NC(=O)N[C@H](CN(C)S(=O)(=O)N1CCCC1)C(C)(C)C)C(C)(C)C)C2(C)C (some centres unmarked) [Compound 10099] | ≤ 75
3 | C=CCNC(=O)C(=O)C(CCC)NC(=O)[C@@H]1[C@@H]2[C@H](CN1C(=O)[C@@H](NC(=O)N[C@H](CN(C)S(=O)(=O)N1CCCCC1)C(C)(C)C)C(C)(C)C)C2(C)C (some centres unmarked) [Compound 10016] | ≤ 75
4 | C=CCNC(=O)C(=O)C(CC1CC1)NC(=O)[C@@H]1[C@@H]2[C@H](CN1C(=O)[C@@H](NC(=O)N[C@H](CN(C)S(=O)(=O)N(C)C)C(C)(C)C)C(C)(C)C)C2(C)C (some centres unmarked) [Compound 10013] | ≤ 75
5 | CN(C[C@@H](NC(=O)N[C@H](C(=O)N1C[C@H]2[C@@H]([C@H]1C(=O)NC(CC1CCC1)C(=O)C(N)=O)C2(C)C)C(C)(C)C)C(C)(C)C)S(=O)(=O)N(C)C(=O)OC(C)(C)C (some centres unmarked) [Compound 10088] | ≤ 75
6 | C=CCNC(=O)C(=O)C(CCC)NC(=O)[C@@H]1[C@@H]2[C@H](CN1C(=O)[C@@H](NC(=O)N[C@H](CN(C)S(=O)(=O)N1CCC1)C(C)(C)C)C(C)(C)C)C2(C)C (some centres unmarked) [Compound 10050] | ≤ 75

Same assay, conditions: Table 2, range

Row | SMILES | Ki [nM]
7 | C=CCNC(=O)C(=O)C(CCCC)NC(=O)[C@@H]1[C@@H]2[C@H](CN1C(=O)[C@@H](NC(=O)N[C@H](CN(C)S(=O)(=O)c1cccs1)C1CCCCC1)C1CCCCC1)C2(C)C (some centres unmarked) [Compound 11239] | ≤ 75
8 | C=CCNC(=O)C(=O)C(CCC)NC(=O)[C@@H]1[C@@H]2[C@H](CN1C(=O)[C@@H](NC(=O)N[C@H](CN(C)S(=O)(=O)c1cccs1)[C@@H](C)CC)C(C)(C)C)C2(C)C (some centres unmarked) [Compound 11083] | ≤ 75
9 | C=CCNC(=O)C(=O)C(CCCC)NC(=O)[C@@H]1[C@@H]2[C@H](CN1C(=O)[C@@H](NC(=O)N[C@H](CN(C)S(=O)(=O)c1cccs1)C(C)(C)C)C(C)(C)C)C2(C)C (some centres unmarked) [Compound 11085] | ≤ 75
10 | C=CCNC(=O)C(=O)C(CCC(F)(F)F)NC(=O)[C@@H]1[C@@H]2[C@H](CN1C(=O)[C@@H](NC(=O)N[C@H](CN(C)S(C)(=O)=O)[C@@H](C)CC)C(C)(C)C)C2(C)C (some centres unmarked) [Compound 11112] | ≤ 75
11 | C#CCCC(NC(=O)[C@@H]1C[C@@H](Cl)CN1C(=O)[C@@H](NC(=O)N[C@H](CN(C)S(C)(=O)=O)C(C)(C)C)C1CCCCC1)C(=O)C(=O)NCC=C (some centres unmarked) [Compound 11165] | ≤ 75
12 | CC(C)[C@@H](CN(C)S(=O)(=O)c1ccccc1)NC(=O)N[C@H](C(=O)N1C[C@H]2[C@@H]([C@H]1C(=O)NC(CC1CCC1)C(=O)C(N)=O)C2(C)C)C(C)(C)C (some centres unmarked) [Compound 11217] | ≤ 75
13 | C=CCNC(=O)C(=O)C(CCCC)NC(=O)[C@@H]1[C@@H]2[C@H](CN1C(=O)[C@@H](NC(=O)N[C@H](CN(C)S(=O)(=O)c1cccs1)C(C)(C)C)C1(C)CCCCC1)C2(C)C (some centres unmarked) [Compound 11142] | ≤ 75
14 | C#CCCC(NC(=O)[C@@H]1[C@@H]2[C@H](CN1C(=O)[C@@H](NC(=O)N[C@H](CN(C)S(=O)(=O)c1ccccn1)C(C)(C)C)C1Cc3ccccc3C1)C2(C)C)C(=O)C(=O)NCC=C (some centres unmarked) [Compound 11376] | ≤ 75
15 | C=CCNC(=O)C(=O)C(CCCC)NC(=O)[C@@H]1[C@@H]2[C@H](CN1C(=O)[C@@H](NC(=O)N[C@H](CN(C)S(C)(=O)=O)C(C)(C)C)C1(C)CCCCC1)C2(C)C (some centres unmarked) [Compound 11255] | ≤ 75
16 | C=CCNC(=O)C(=O)C(CCC)NC(=O)[C@@H]1[C@@H]2[C@H](CN1C(=O)[C@@H](NC(=O)N[C@H](CN(C)S(C)(=O)=O)C(C)(C)C)C1(C)CCCCC1)C2(C)C (some centres unmarked) [Compound 11254] | ≤ 75
17 | CCS(=O)(=O)N(C)C[C@@H](NC(=O)N[C@H](C(=O)N1C[C@H]2[C@@H]([C@H]1C(=O)NC(CC1CCC1)C(=O)C(N)=O)C2(C)C)C(C)(C)C)C(C)(C)C (some centres unmarked) [Compound 11120] | ≤ 75
18 | CC(C)[C@@H](CN(C)S(C)(=O)=O)NC(=O)N[C@H](C(=O)N1C[C@H]2[C@@H]([C@H]1C(=O)NC(CC1CC1)C(=O)C(N)=O)C2(C)C)C(C)(C)C (some centres unmarked) [Compound 11019] | ≤ 75
19 | CN(C[C@@H](NC(=O)N[C@H](C(=O)N1C[C@H]2[C@@H]([C@H]1C(=O)NC(CC1CCC1)C(=O)C(N)=O)C2(C)C)C(C)(C)C)C(C)(C)C)S(C)(=O)=O (some centres unmarked) [Compound 11039] | ≤ 75
20 | CN(C[C@@H](NC(=O)N[C@H](C(=O)N1C[C@H]2[C@@H]([C@H]1C(=O)NC(CC1CCC1)C(=O)C(N)=O)C2(C)C)C(C)(C)C)C(C)(C)C)S(=O)(=O)C(C)(C)C (some centres unmarked) [Compound 11203] | ≤ 75
21 | C=CCNC(=O)C(=O)C(CCC(F)(F)F)NC(=O)[C@@H]1[C@@H]2[C@H](CN1C(=O)[C@@H](NC(=O)NC1(Cc3ccccc3)CCCN(S(C)(=O)=O)C1)C(C)(C)C)C2(C)C (some centres unmarked) [Compound 11009] | > 250
22 | CC(C)[C@@H](CN(C)S(C)(=O)=O)NC(=O)N[C@H](C(=O)N1C[C@H]2[C@@H]([C@H]1C(=O)NC(CC1CCC1)C(=O)C(N)=O)C2(C)C)C(C)(C)C (some centres unmarked) [Compound 11020] | ≤ 75
23 | CN(C[C@@H](NC(=O)N[C@H](C(=O)N1C[C@H]2[C@@H]([C@H]1C(=O)NC(CC1CC1)C(=O)C(N)=O)C2(C)C)C(C)(C)C)C1CCCCC1)S(=O)(=O)c1cccs1 (some centres unmarked) [Compound 11157] | ≤ 75
24 | C=CCNC(=O)C(=O)C(CCCC)NC(=O)[C@@H]1[C@@H]2[C@H](CN1C(=O)[C@@H](NC(=O)N[C@H](CN(C)S(=O)(=O)c1ccccc1C)C(C)(C)C)C(C)(C)C)C2(C)C (some centres unmarked) [Compound 11347] | ≤ 75
25 | C=CCNC(=O)C(=O)C(CCCC)NC(=O)[C@@H]1[C@@H]2[C@H](CN1C(=O)[C@@H](NC(=O)N[C@H](CN(C)S(=O)(=O)c1ccccc1)C(C)(C)C)C1CCCCC1)C2(C)C (some centres unmarked) [Compound 11354] | ≤ 75
26 | C=CCNC(=O)C(=O)C(CC1CC1)NC(=O)[C@@H]1[C@@H]2[C@H](CN1C(=O)[C@@H](NC(=O)N[C@H](CN(C)S(=O)(=O)c1cccs1)CC(C)(C)C)C(C)(C)C)C2(C)C (some centres unmarked) [Compound 11108] | ≤ 75
27 | CN(C[C@@H](NC(=O)N[C@H](C(=O)N1C[C@H](OC(C)(C)C)C[C@H]1C(=O)NC(CC1CCC1)C(=O)C(N)=O)C1CCCCC1)C(C)(C)C)S(C)(=O)=O (some centres unmarked) [Compound 11185] | ≤ 75
28 | C=CCNC(=O)C(=O)C(CC1CC1)NC(=O)[C@@H]1[C@@H]2[C@H](CN1C(=O)[C@@H](NC(=O)N[C@H](CN(C)S(=O)(=O)c1cn(C)cn1)C(C)(C)C)C(C)(C)C)C2(C)C (some centres unmarked) [Compound 11330] | ≤ 75
29 | CCCC(NC(=O)[C@@H]1[C@@H]2[C@H](CN1C(=O)[C@@H](NC(=O)N[C@H](CN(C)S(C)(=O)=O)C(C)(C)C)C1(C)CCCCC1)C2(C)C)C(=O)C(N)=O (some centres unmarked) [Compound 11150] | ≤ 75

Same assay, conditions: Table 5, range

Row | SMILES | Ki [nM]
30 | CN(C[C@@H](NC(=O)N[C@H](C(=O)N1C[C@H]2[C@@H]([C@H]1C(=O)NC(CC1CCC1)C(=O)C(N)=O)C2(C)C)C1CCCCC1)C(C)(C)C)C(=O)OC(C)(C)C (some centres unmarked) [Compound 14038] | 75 to 250
31 | CC(C)[C@@H](CN(C)C(=O)OC(C)(C)C)NC(=O)N[C@H](C(=O)N1C[C@H]2[C@@H]([C@H]1C(=O)NC(CC1CCC1)C(=O)C(N)=O)C2(C)C)C(C)(C)C (some centres unmarked) [Compound 14033] | 75 to 250
32 | CC(C)NC(=O)NC[C@@H](NC(=O)N[C@H](C(=O)N1C[C@H]2[C@@H]([C@H]1C(=O)NC(CC1CCC1)C(=O)C(N)=O)C2(C)C)C(C)(C)C)C(C)C (some centres unmarked) [Compound 14058] | ≤ 75
33 | C=CCNC(=O)C(=O)C(CC1CC1)NC(=O)[C@@H]1[C@@H]2[C@H](CN1C(=O)[C@@H](NC(=O)N[C@H](CNC(=O)OC(C)(C)C)C(C)C)C(C)(C)C)C2(C)C (some centres unmarked) [Compound 14025] | > 250
34 | C=CCNC(=O)C(=O)C(CCC)NC(=O)[C@@H]1[C@@H]2[C@H](CN1C(=O)[C@@H](NC(=O)N[C@H](CN(C)C(=O)OC(C)(C)C)CC(C)(C)C)C(C)(C)C)C2(C)C (some centres unmarked) [Compound 14042] | > 250

Same assay, conditions: Table 5A, range

Row | SMILES | Ki [nM]
35 | CCCC(NC(=O)[C@@H]1[C@@H]2[C@H](CN1C(=O)[C@@H](NC(=O)N[C@H](CN(C)S(=O)(=O)CC)C(C)(C)C)C1Cc3ccccc3C1)C2(C)C)C(=O)C(=O)NC1CC1 (some centres unmarked) [Compound 11400] | ≤ 75
36 | C=CCNC(=O)C(=O)C(CCCC)NC(=O)[C@@H]1[C@@H]2[C@H](CN1C(=O)[C@@H](NC(=O)N[C@H](CN(C)S(=O)(=O)CC)C1(C)CCCCC1)C1Cc3ccccc3C1)C2(C)C (some centres unmarked) [Compound 11422] | ≤ 75
37 | CCCCC(NC(=O)[C@@H]1[C@@H]2[C@H](CN1C(=O)[C@@H](NC(=O)N[C@H](CN(C)S(=O)(=O)CC)C(C)(C)C)C1(C)Cc3ccccc3C1)C2(C)C)C(=O)C(=O)NC1CC1 (some centres unmarked) [Compound 11426] | ≤ 75
38 | C=CCNC(=O)C(=O)C(CCC1CC1)NC(=O)[C@@H]1[C@@H]2[C@H](CN1C(=O)[C@@H](NC(=O)N[C@H](CN(C)S(=O)(=O)CC)C(C)(C)C)C1Cc3ccccc3C1)C2(C)C (some centres unmarked) [Compound 11417] | ≤ 75
39 | CCCCC(NC(=O)[C@@H]1[C@@H]2[C@H](CN1C(=O)[C@@H](NC(=O)N[C@H](CN(C)S(=O)(=O)CC)C(C)(C)C)C1Cc3ccccc3C1)C2(C)C)C(=O)C(=O)NC1CC1 (some centres unmarked) [Compound 11399] | ≤ 75

Same assay, conditions: Table 6

Row | SMILES | Ki [nM]
40 | CCCC(NC(=O)[C@@H]1[C@@H]2[C@H](CN1C(=O)[C@@H](NC(=O)N[C@H](CN(C)S(=O)(=O)CC)C(C)(C)C)C1Cc3ccccc3C1)C2(C)C)C(=O)C(=O)NC1CC1 (some centres unmarked) [Compound 11400] | 9
41 | C#CCCC(NC(=O)[C@@H]1[C@@H]2[C@H](CN1C(=O)[C@@H](NC(=O)N[C@H](CN(C)S(=O)(=O)N(C)C)C(C)(C)C)C(C)(C)C)C2(C)C)C(=O)C(=O)NCC=C (some centres unmarked) [drawing 59] | 2.6
42 | C=CCNC(=O)C(=O)C(CCC1CC1)NC(=O)[C@@H]1[C@@H]2[C@H](CN1C(=O)[C@@H](NC(=O)N[C@H](CN(C)S(=O)(=O)CC)C(C)(C)C)C1Cc3ccccc3C1)C2(C)C (some centres unmarked) [Compound 11417] | 6
43 | CCCCC(NC(=O)[C@@H]1[C@@H]2[C@H](CN1C(=O)[C@@H](NC(=O)N[C@H](CN(C)S(=O)(=O)CC)C(C)(C)C)C1Cc3ccccc3C1)C2(C)C)C(=O)C(=O)NC1CC1 (some centres unmarked) [Compound 11399] | 4
44 | C=CCNC(=O)C(=O)C(CCC)NC(=O)[C@@H]1[C@@H]2[C@H](CN1C(=O)[C@@H](NC(=O)N[C@H](CN(C)S(=O)(=O)CC)C(C)(C)C)C1(C)CCCCC1)C2(C)C (some centres unmarked) [drawing 63] | 10
